Results published in PMC9699089 (Pathogens, 2022).

How the values were obtained:
[1] = tested on: Plasmodium falciparum CQ-resistant strain W2; assay: In vitro antiplasmodial activity, SYBR Green I fluorescence-based method, strain W2; format: cell-based; conditions: SI = CC50 HepG2 / IC50 P. falciparum W2
Protocol: (§1) The in vitro antiplasmodial activities were tested over concentrations ranging from 39 nM to 40 µM against culture-adapted Plasmodium falciparum reference strains 3D7 and W2. […] These two strains are obtained from the collection of the National Museum of Natural History (Paris, France). The parasites were cultivated in RPMI medium (Sigma Aldrich, Lyon, France) supplemented with 0.5% Albumax I (Life Technologies Corporation, Paisley, UK), hypoxanthine (Sigma Aldrich), and gentamicin (Sigma Aldrich) with human erythrocytes and were incubated at 37 °C in a candle jar, as described previously. The P. falciparum drug susceptibility test was carried out in 96-well flat bottom sterile plates in a final volume of 250 µL. After 48 h incubation period with the drugs, quantities of DNA in treated and control cultures of parasites in human erythrocytes were quantified using the SYBR Green I (Sigma Aldrich) fluorescence-based method. Briefly, after incubation, plates were frozen at -20 °C until use. Plates were then thawed for 2 h at room temperature, and 100 µL of each homogenized culture was transferred to a well of a 96-well flat bottom sterile black plate (Nunc, Inc.) that contained 100 µL of the SYBR Green I lysis buffer (2xSYBR Green, 20 mM Tris base pH 7.5, 5 mM EDTA, 0.008% w/v saponin, 0.08% w/v Triton X-100). […] Plates were incubated for 1 h at room temperature and then read on a fluorescence plate reader (Tecan, Austria) using excitation and emission wavelengths of 485 and 535 nm, respectively.

[2] = tested on: Plasmodium falciparum CQ-sensitive strain 3D7; assay: In vitro antiplasmodial activity, SYBR Green I fluorescence-based method, strain 3D7; format: cell-based; conditions: SI = CC50 HepG2 / IC50 P. falciparum 3D7
Protocol: as §1

[3] = tested on: T. brucei brucei AnTat 1.9; assay: In vitro antitrypanosomal activity, Alamar Blue assay; format: cell-based; conditions: SI = CC50 HepG2 / IC50 Trypanosoma brucei brucei
Protocol: The effects of the tested compounds on the growth of T. brucei brucei were assessed using an Alamar Blue® assay described by Räz et al. T. brucei brucei AnTat 1.9 ([…], Belgium) was cultured in MEM with Earle's salts, supplemented according to the protocol of Baltz et al. […] All doses were tested in duplicate. Appropriate controls treated with solvents 0.9% NaCl or DMSO or with suramin, pentamidine, eflornithine, and fexinidazole (reference drugs purchased from Sigma Aldrich and Fluorochem, UK) were added to each set of experiments. After 69 h incubation period at 37 °C, 10 μL of the viability marker Alamar Blue (Fisher) was added to each well, and the plates were incubated for 5 h. The plates were read in a PerkinElmer ENSPIRE (Germany) microplate reader using an excitation wavelength of 530 nm and an emission wavelength of 590 nm.

[4] = Cytotoxicity evaluation, MTT assay; format: cell-based; conditions: human
Protocol: These cells are a commonly used human hepatocarcinoma-derived cell line that has characteristics similar to those of primary hepatocytes. These cells express many hepatocyte-specific metabolic enzymes, thus enabling the cytotoxicity of tested product metabolites to be evaluated. […] Duplicate assays were performed for each sample. Each well was microscopically examined for precipitate formation before the medium was aspirated from the wells. After aspiration, 100 µL of MTT solution (0.5 mg/mL in medium without FCS) were then added to each well. […] The MTT solution was removed, and DMSO (100 µL) was added to dissolve the resulting blue formazan crystals. Plates were shaken vigorously (300 rpm) for 5 min. The absorbance was measured at 570 nm with 630 nm as reference wavelength in a BIO-TEK ELx808 Absorbance Microplate Reader. DMSO was used as blank and doxorubicin (Sigma Aldrich) as positive control. Cell viability was calculated as percentage of control (cells incubated without compound). The CC50 was determined from the dose-response curve using TableCurve 2D V5.0 software (Systat Software, Palo Alto, CA, USA).

[5] = tested on: L. donovani (MHOM/IN/00/DEVI) promastigotes; assay: In vitro antileishmanial activity on promastigotes, MTT assay; format: cell-based, Leishmania donovani; conditions: SI = CC50 HepG2 / IC50 L. donovani
Protocol: L. donovani (MHOM/IN/00/DEVI) used in this study was provided by the CNR Leishmania (Montpellier, France). The effects of the tested compounds on the growth of L. donovani (MHOM/IN/00/DEVI) promastigotes were assessed by MTT assay. Briefly, promastigotes in log-phase in Schneider’s medium supplemented with 20% fetal calf serum (FCS), 2 mM L-glutamine and antibiotics (100 U/mL penicillin and 100 µg/mL streptomycin), were incubated at an average density of 10^6 parasites/mL in sterile 96-well plates with various concentrations of compounds previously dissolved in DMSO (final concentration less than 0.5% v/v), in duplicate. Appropriate controls treated with DMSO, pentamidine, and amphotericin B (reference drugs purchased from Sigma Aldrich) were added to each set of experiments. Duplicate assays were performed for each sample. After the 72 h incubation period at 27 °C, parasite metabolic activity was determined. Each well was microscopically examined for precipitate formation. To each well was added 10 µL of 10 mg/mL MTT [3-(4,5-dimethylthiazol-2-yl)-2,5-diphenyltetrazolium bromide)] solution followed by 4 h incubation time. The enzyme reaction was stopped by addition of 100 µL of 50% isopropanol/10% sodium dodecyl sulfate. Plates were vigorously shaken (300 rpm) for 10 min, and the absorbance was measured at 570 nm with 630 nm as reference wavelength in a BIOTEK ELx808 Absorbance Microplate Reader (Agilent Technologies, Les Ulis, France). […] IC50 of the parasite’s growth (half maximal inhibitory concentration or IC50 values) were then calculated from the obtained experimental results using a previously described regression program. IC50 values were calculated from three independent experiments.

Row | SMILES | Selectivity Index HepG2/W2 [1] | Selectivity Index HepG2/3D7 [2] | Selectivity Index HepG2/Tryp. [3] | CC50 at 72 h [4] | Selectivity Index HepG2/L. donovani [5]
1 | CN(C)CCNCc1cc(-c2ccccc2)c2ccc3c(-c4ccccc4)cc(CNCCN(C)C)nc3c2n1 [Compound 1a, 2,9-Bis[(2-dimethylaminoethyl)aminomethyl]-4,7-diphenyl-1,10-phenanthroline] | 6.52 | 3.62 | 9.73 | 6.52 ± 0.61 µM | 
2 | CN(C)CCCNCc1cc(-c2ccccc2)c2ccc3c(-c4ccccc4)cc(CNCCCN(C)C)nc3c2n1 [Compound 1b, 2,9-Bis[(3-dimethylaminopropyl)aminomethyl]-4,7-diphenyl-1,10-phenanthroline] | 0.97 | 0.28 | 10.46 |  | 
3 | CN(C)CCCCNCc1cc(-c2ccccc2)c2ccc3c(-c4ccccc4)cc(CNCCCCN(C)C)nc3c2n1 [Compound 1c, 2,9-Bis[(4-dimethylaminobutyl)aminomethyl]-4,7-diphenyl-1,10-phenanthroline] | 347.67 | 1.01 | 12.13 |  | 
4 | CN(C)CCCCCNCc1cc(-c2ccccc2)c2ccc3c(-c4ccccc4)cc(CNCCCCCN(C)C)nc3c2n1 [Compound 1d, 2,9-Bis[(5-dimethylaminopentyl)aminomethyl]-4,7-diphenyl-1,10-phenanthroline] | 0.95 | 0.70 | 2.36 |  | 
5 | CN1CCN(CCNCc2cc(-c3ccccc3)c3ccc4c(-c5ccccc5)cc(CNCCN5CCN(C)CC5)nc4c3n2)CC1 [Compound 1e] | 11.46 | 4.88 | 23.42 |  | 
6 | CN1CCN(CCCNCc2cc(-c3ccccc3)c3ccc4c(-c5ccccc5)cc(CNCCCN5CCN(C)CC5)nc4c3n2)CC1 [Compound 1f] | 0.76 | 0.40 | 8.89 |  | 
7 | CN1CCN(CCCCNCc2cc(-c3ccccc3)c3ccc4c(-c5ccccc5)cc(CNCCCCN5CCN(C)CC5)nc4c3n2)CC1 [Compound 1g] | 6.75 | 2.04 | 17.45 |  | 
8 | c1ccc(-c2cc(CNCCN3CCOCC3)nc3c2ccc2c(-c4ccccc4)cc(CNCCN4CCOCC4)nc23)cc1 [Compound 1h] | 34.64 | 8.79 | 26.77 |  | 1.31
9 | c1ccc(-c2cc(CNCCCN3CCOCC3)nc3c2ccc2c(-c4ccccc4)cc(CNCCCN4CCOCC4)nc23)cc1 [Compound 1i] | 157.25 | 4.34 | 21.69 |  | 
10 | c1ccc(-c2cc(CNCCN3CCCCC3)nc3c2ccc2c(-c4ccccc4)cc(CNCCN4CCCCC4)nc23)cc1 [Compound 1j] | 0.63 | 1.03 | 8.20 |  | 0.65
11 | c1ccc(-c2cc(CNCCCN3CCCCC3)nc3c2ccc2c(-c4ccccc4)cc(CNCCCN4CCCCC4)nc23)cc1 [Compound 1k] | 2.60 | 1.35 | 5.57 |  | 
12 | c1ccc(-c2cc(CNCCCN3CCCC3)nc3c2ccc2c(-c4ccccc4)cc(CNCCCN4CCCC4)nc23)cc1 [Compound 1l] | 505.7 | 1.53 | 13.42 |  | 
13 | c1ccc(-c2cc(CNCCc3ccccn3)nc3c2ccc2c(-c4ccccc4)cc(CNCCc4ccccn4)nc23)cc1 [Compound 1m] | 62.0 | 9.23 | 6.89 |  | 
14 | c1ccc(-c2cc(CNCCc3cccnc3)nc3c2ccc2c(-c4ccccc4)cc(CNCCc4cccnc4)nc23)cc1 [Compound 1n] | 1.22 | 4.37 | 7.21 |  | 1.16
15 | c1ccc(-c2cc(CNCCc3ccncc3)nc3c2ccc2c(-c4ccccc4)cc(CNCCc4ccncc4)nc23)cc1 [Compound 1o] | 10.22 | 26.18 | 91.0 |  | 7.10
16 | c1ccc(-c2cc(CNCCCc3ccncc3)nc3c2ccc2c(-c4ccccc4)cc(CNCCCc4ccncc4)nc23)cc1 [Compound 1p] | 20.97 | 2.98 | 4.68 |  | 
